## Yeast mating assay B: variants of the scFv Ab-14

The measurements come from Li et al. 2023 (doi:10.1038/s41467-023-39022-2) through the FLAb antibody collection.

Target peptide (SARS-CoV-2 spike, HR2 region): PDVDLGDISGINAS

Parent scFv Ab-14: VH joined to VL by the linker GGGGSGGGGSGGGGS. Changes lie in the light chain CDRs alone.
VH: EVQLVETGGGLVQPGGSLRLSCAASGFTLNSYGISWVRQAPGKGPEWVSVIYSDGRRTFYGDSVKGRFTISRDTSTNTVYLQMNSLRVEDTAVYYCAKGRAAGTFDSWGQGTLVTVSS
VL: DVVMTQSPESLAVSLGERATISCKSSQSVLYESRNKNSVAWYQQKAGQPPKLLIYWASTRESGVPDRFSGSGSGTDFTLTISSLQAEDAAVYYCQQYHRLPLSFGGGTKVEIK

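These sequences belong to a second round, designed from the earlier measurements on random variants of the parent. Several design methods are mixed in this list. The scFvs were displayed on barcoded MATa yeast, the peptide on MATalpha yeast. Binding brings cells together so that they mate, and sequencing counts the barcode pairs among the diploids. The ratio of observed to expected reads was calibrated, replicate by replicate, on BCL2-family standards whose Kd was known from biolayer interferometry. The assay was run in six technical replicates.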

Each variant is given by its three light chain CDRs, as the data file delimits them; those of the parent are KSSQSVLYESRNKNSVA, WASTRES, QQYHRLPLS.
Scale: log10 of Kd in nM, estimated from mating counts; low values are strong binders.
The mean shown is taken over the replicates in which the pair was detected.
"nd" means that the variant was in the library but no mating with the target was seen in any replicate; the authors take this as a sign of poor binding, and no number exists.
The authors averaged sequences with at least three values out of six and counted those with two or fewer as poor binders.
The range of this assay differs from that of the first round, and the authors advise against merging the two.
Empty control strains, which show no peptide, gave a signal in 4% of pairings with all light chain designs; the median was 2.64 and 95% of these signals were weaker than 1.59. No background was subtracted. Also given: how often the same scFv was detected with the empty control strains.

| CDR-L1 | CDR-L2 | CDR-L3 | log10 Kd (nM), mean | replicates with signal | empty controls |
|---|---|---|---|---|---|
| KLMQSSGYDSRNKNSVA | QASTRMS | QQYHRLPLS | 0.19 | 6/6 | 0/18 |
| KLSQSWLYESRNKNSVA | DASTRLS | QQYHRLPLS | -0.10 | 6/6 | 1/18 |
| KMSQSVLYESRNKNSVA | DASTRSS | QQYHRLPLS | -0.25 | 6/6 | 0/18 |
| MFSQGVMVGWLTRNSVA | NSSTREK | QQYDRLPLS | -0.28 | 6/6 | 0/18 |
| KVSQSMLYESRNKNSVA | NASYRES | QQYHRLPLS | -0.41 | 6/6 | 2/18 |
| KLSQSMGYEERNKNSVA | HASQRMS | QQYHRLPLS | -0.01 | 6/6 | 2/18 |
| KISQTFNVGQKNKNSLA | EMSTRGF | QDYHRLPLS | 1.21 | 6/6 | 0/18 |
| KISQSDEYESRNKNSVA | WASTRES | QQHHRLPLS | nd | 0/6 | 0/18 |
| KISQEVWYESRNKNSVA | GASQRCS | QQYHRLPLS | -0.26 | 6/6 | 0/18 |
| KSSISYTYESRNKNSVA | EASTRVS | EQYHRLPLS | 0.10 | 6/6 | 0/18 |
| KSSQSVLYESRNKNPVA | SASTRES | QQYHRLPLF | 2.04 | 6/6 | 1/18 |
| KHSQSVLGEQRNKNSVA | DISTRES | QQYHRLPLS | 0.67 | 6/6 | 1/18 |
| KLSQSDLYESRNSNSVA | NASQRES | QQYHRLPLS | 0.15 | 6/6 | 1/18 |
| QINVNRLMNYLHNNAIA | GKTLRVD | QQYARLPLS | 0.64 | 6/6 | 0/18 |
| KLVQSEGYESRNKNNVA | GASQRES | QQYHRLPLS | -0.41 | 6/6 | 1/18 |
| KSSQSVLYESRNQNNVA | QASTRES | QQYHRLPLS | 0.40 | 6/6 | 2/18 |
| HSSCSVLYESRNKNSVA | NASTRES | QQYHRLPLS | 0.60 | 6/6 | 0/18 |
| KLSQSVLYESRMKNNVA | SASTRES | QQYHRLPLS | -0.07 | 6/6 | 2/18 |
| KSSQSVLYESSNKNSVA | MASTRES | QQYHRLPLS | 1.73 | 6/6 | 0/18 |
| HISQSVGMTSFNKNSVA | ENSTREK | QQYDRLPLS | 1.60 | 1/6 | 1/18 |
| KLQQSVLYESRMKNSVA | NASTRED | QQYHRLPLS | -0.08 | 6/6 | 3/18 |
| KSGQGVLYEYMNKNSVA | GASTMES | QQYHRLPLS | 1.38 | 6/6 | 0/18 |
| TLYGLSMAMSKNTNNVA | EMTTRED | QQYDRLPLI | 1.57 | 4/6 | 0/18 |
| KISGMLQKESKNKNSVA | EMVNRES | QQYDRLPLS | 0.34 | 6/6 | 1/18 |
| KLWAYFQGLEQYMQNVA | DGSYRST | QQYDRLPLS | 1.20 | 6/6 | 1/18 |
| KSSQSVTYESRNKNSVA | NASTRES | QQYHRLPLS | 0.87 | 6/6 | 2/18 |
| KLSYSVEYQERNKNSVA | QASQRES | QQYHRLPLS | 0.03 | 6/6 | 0/18 |
| KSSQSVLYESRNKNSVA | WAKTRES | QQHHRLPLS | nd | 0/6 | 0/18 |
| KISMVLNKESKAGNNVA | EMVNRES | QQYDRLPLS | 0.79 | 6/6 | 2/18 |
| MLTWDDDHETGRQNSIA | HAHERNT | QQYHQLPLI | 0.46 | 6/6 | 1/18 |
| MISQLMNMGTFAINSVA | QASIRNS | QQYDRLPLT | 2.20 | 1/6 | 0/18 |
| KQSQSGPYEDRNFNSVA | HASYRIS | QQYHRLPLS | 1.63 | 6/6 | 1/18 |
| KSSISVEYQDRLSNSVA | DASQRES | QQYHRLPLS | 0.04 | 6/6 | 3/18 |
| KSSQSVPFSSRNKNSVA | TRSTRES | QQYHRLPLS | nd | 0/6 | 0/18 |
| KVPQSMLYESRNANSVA | NASTRLE | QQYHRLPLS | -0.30 | 6/6 | 0/18 |
| MMSQVTGQGTRHRNNVA | QTEVREP | QQYDRLPLI | 0.59 | 6/6 | 0/18 |
| KIAATVLYESGQANSVA | QNSTRES | QQYHRLPLS | 1.85 | 6/6 | 2/18 |
| SVTNETDGNGLKWNSVA | DAAELMT | QDYFRLPIT | 1.20 | 6/6 | 0/18 |
| KIEQSQLYESRNKNSVA | NASTRES | QQYHRLPLS | -0.53 | 6/6 | 0/18 |
| HISPMFMVESRLKNSVA | QTSTRES | QQYDRLPLS | 0.22 | 6/6 | 1/18 |
| KFMQSMGYESRNQNSVA | DASTRRS | QQYHRLPLS | 0.63 | 6/6 | 1/18 |
| TLSQSMDMTSRNVNSVA | DLTERGN | QQYHRLPLS | 0.09 | 6/6 | 0/18 |
| KVMQSVLYEDRNANNVA | NGSTRES | QQYHRLPLS | -0.13 | 6/6 | 0/18 |
| HSSPSMLYESRNKNSVA | NASTRES | QQYHRLPLS | 0.48 | 6/6 | 2/18 |
| KSSTSVLYESRNKNSVA | WASLRES | QQYHRLPLC | 1.86 | 2/6 | 0/18 |
| KLRQSTLYESRNKNSVA | YASTRLS | QQYHRLPLS | 1.96 | 6/6 | 2/18 |
| IVSQLMLWGMHAKNSIA | EAETRLN | QQYDRLPLF | 1.02 | 6/6 | 0/18 |
| KLMQSTLYESRNQNSVA | WASTRES | QQYHRLPLS | 1.84 | 6/6 | 1/18 |
| KLQMQMLYESRMKNSVA | DASLRES | QQYHRLPLS | 0.22 | 6/6 | 0/18 |
| KSSQSVLYESRNKNNVA | WASMHNS | QQYMRLPLS | 1.25 | 1/6 | 1/18 |
| KLDQSWLYESRNKNSVA | NASQRLS | QQYHRLPLS | 0.03 | 6/6 | 3/18 |
| KISQSWLYESRNFWSVA | GASTRES | QQYHRLPLS | 0.47 | 6/6 | 1/18 |
| KLSQSVLYEMRFKNSVA | QAVTRMS | QQYHRLPLS | 1.14 | 6/6 | 1/18 |
| NITYAAEQLQRIDSSVA | AGSARCR | QQYYRLPLS | 0.58 | 6/6 | 1/18 |
| KIGMTLNTLMHQKNNVA | DLVTRED | QQYHRLPLS | 0.60 | 6/6 | 1/18 |
| HLSDTVMQGSYYRQSVA | QESTRAD | QQYHRLPLS | 0.13 | 6/6 | 1/18 |
| KSSQSVLYESRNKNSLA | MASTRAS | QQYHRLFLK | nd | 0/6 | 0/18 |
| TISQTAQMESHNKNSVA | DLNVRGS | QQYDRLPLS | 0.51 | 6/6 | 3/18 |
| KSSQGVLQESRNKNGVA | WASKRES | QQYHRLPLS | 2.54 | 4/6 | 2/18 |
| KLSQSNGYEDRNKNSVA | SASQRLM | QQYHRLPLS | -0.39 | 6/6 | 1/18 |
| KFGQMVLTGAYVSNSVA | QMSTRVN | QQYHRLPLS | 0.52 | 6/6 | 4/18 |
| TLTQVQGMESHNKNNVA | DLSTRGS | QQYHRLPLS | -0.03 | 6/6 | 1/18 |
| KISQSMLYESRNKNSVA | AASTRET | QDYHGLPLS | 0.88 | 6/6 | 2/18 |
| KIGQQVTYESTNKNAIA | QMTTRES | QQYHHLPLS | 1.13 | 6/6 | 0/18 |
| KVSQQNLYEQRNANNVA | NASLRES | QQYHRLPLS | -0.12 | 6/6 | 0/18 |
| KAQWLWPYWSRNWNSVA | NASTREQ | QQYHRLPLS | 0.17 | 6/6 | 2/18 |
| KFSQSVLYESVNKNSVA | WASTRES | QQYHRHPLS | nd | 0/6 | 0/18 |
| KSSQLVLYESRTKNSVA | WASTRES | QQHHRLPLS | 1.61 | 1/6 | 0/18 |
| VMFGGLNWGNIEHQAIA | NVDVREK | QQYHRLPLQ | 2.00 | 6/6 | 1/18 |
| KFSQWVLYESRMKNSVA | NASTRES | QQYHRLPLS | 0.87 | 6/6 | 1/18 |
| KSSQSYLMESRNKNSVA | NASTRES | QFYHRLPLS | 0.66 | 6/6 | 1/18 |
| MITAAMNAYNGSRSSVA | DKAISVN | QQYHRLPLS | 2.52 | 4/6 | 1/18 |
| KISQFYEMESRNKNSVA | SASTRMV | QQYHRLPLS | 0.10 | 6/6 | 2/18 |
| MISQVMGLNNMYKSSVA | QAEERVS | QQYDHLPLS | 0.70 | 6/6 | 0/18 |
| NVGQLMDGETRNRNNVA | HQTTRED | QHYHRLPLS | 0.07 | 6/6 | 1/18 |
| KLSQVTHSESRNKNSIA | EMVTRNV | QQYDRLPLS | 0.75 | 6/6 | 0/18 |
| IVSQLMMWGMHAKNSIA | EAVTRLN | QQYERLPLF | 0.49 | 1/6 | 1/18 |
| TLGNQPTEMRDNKHAVA | DDNQRDR | QSYMRLPLS | 1.36 | 4/6 | 0/18 |

The opening 13 entries, copied out:

CDR-L1	CDR-L2	CDR-L3	log10 Kd (nM), mean	replicates with signal	empty controls
KLMQSSGYDSRNKNSVA	QASTRMS	QQYHRLPLS	0.19	6/6	0/18
KLSQSWLYESRNKNSVA	DASTRLS	QQYHRLPLS	-0.10	6/6	1/18
KMSQSVLYESRNKNSVA	DASTRSS	QQYHRLPLS	-0.25	6/6	0/18
MFSQGVMVGWLTRNSVA	NSSTREK	QQYDRLPLS	-0.28	6/6	0/18
KVSQSMLYESRNKNSVA	NASYRES	QQYHRLPLS	-0.41	6/6	2/18
KLSQSMGYEERNKNSVA	HASQRMS	QQYHRLPLS	-0.01	6/6	2/18
KISQTFNVGQKNKNSLA	EMSTRGF	QDYHRLPLS	1.21	6/6	0/18
KISQSDEYESRNKNSVA	WASTRES	QQHHRLPLS	nd	0/6	0/18
KISQEVWYESRNKNSVA	GASQRCS	QQYHRLPLS	-0.26	6/6	0/18
KSSISYTYESRNKNSVA	EASTRVS	EQYHRLPLS	0.10	6/6	0/18
KSSQSVLYESRNKNPVA	SASTRES	QQYHRLPLF	2.04	6/6	1/18
KHSQSVLGEQRNKNSVA	DISTRES	QQYHRLPLS	0.67	6/6	1/18
KLSQSDLYESRNSNSVA	NASQRES	QQYHRLPLS	0.15	6/6	1/18